Consider 65 molecules from PubChem BioAssay AID435003 (Sanford-Burnham Center for Chemical Genomics, 2010).

Each structure is given as a SMILES string. The list shows a part of the results, in another mix than the full data. Active and inactive are the calls of the source. No stated cut-off is given here; in the data, active means inhibition above about 50%; inactive means the rest.

What is called inhibition is the drop in the measured response relative to a control, in per cent.

The test can be described thus: inhibitors of induced NF-kB luciferase reporter, primary screen, TCR NF-kB activation inhibitor project, cell-based, luminescence, uHTS (AID 435003). As to conditions: Jurkat, PMA/ionomycin-induced NF-kB luciferase reporter, at 4 µM, stronger effect = higher value.
Turning to `CN(C(=O)Cc1ccc(Cl)c(Cl)c1)[C@H]1CCCC[C@@H]1N1CCCC1`, the inhibition was inactive: 4.68%.
With `Cc1ccc(NP(=O)(Oc2ccccc2F)Oc2ccccc2F)nc1` the figure was inactive: 1.93%.
In the case of `CCOP(=O)(Nc1ccccc1)OCC`, the inhibition is inactive: -24.9%.
Next, `Cc1cc(SC(NC(=O)c2ccc(F)cc2)C(Cl)(Cl)Cl)ncn1` (stereo not given): inactive: -3.29%; `O=C(O)c1ccccc1[As](=O)(O)O`: inactive: -18.1%.
`CC(=O)Nc1ccc([As](=O)(O)O)cc1`: the inhibition was inactive: 3.67%.
Take `O=P(Nc1nc2ccc(Cl)cc2s1)(c1ccccc1)c1ccccc1`: the inhibition is inactive: 7.38%.
With `CCN(N=Nc1nonc1N)c1nonc1N` the figure was inactive: 9.4%.
With `O=[N+]([O-])c1cc([N+](=O)[O-])c(CCN2CCOCC2)c([N+](=O)[O-])c1` the figure was inactive: -3.98%; with `Cc1ccc(OP(=O)(Nc2nccs2)Oc2ccc(C)cc2)cc1`, inactive: 10.5%.
Take `COc1ccccc1OP(=O)(Nc1ccc(C)cn1)Oc1ccccc1OC`: the inhibition is inactive: 9.83%.
Next, `Clc1ccc(Cl)c(NC2=NCC(CBr)S2)c1` (stereo not given): inactive: 7.8%.
In the case of `CN1CCCC(OC(=O)C(c2ccccc2)c2ccccc2)C1` (stereo not given), the inhibition is inactive: 3.05%.
Next, `NC(=O)c1cc([N+](=O)[O-])cc([N+](=O)[O-])c1N`: inactive: -8.65%.
Consider `Cc1ccc(N/C(=N/P(=O)(N2CCOCC2)N2CCOCC2)N2CCOCC2)cc1`, for which the inhibition is inactive: 3.06%.
As to `CN(C(=O)Cc1ccc(Cl)c(Cl)c1)[C@H]1CCCC[C@H]1N1CCCC1`, the inhibition is inactive: 3.58%.
With `CC(C)CC(=O)NC(Sc1ccc(Cl)cc1)C(Cl)(Cl)Cl` (stereo not given) the figure was inactive: -24.5%.
For the molecule `Nc1cc(N)c2nonc2c1[N+](=O)[O-]`, the inhibition is inactive: 5.61%.
Next, `Cc1c2non([O-])c-2c(C)[n+](=O)[n+]1[O-]`: inactive: 11.4%.
As to `O=C(NC(Sc1ccncn1)C(Cl)(Cl)Cl)c1ccccc1` (stereo not given), the inhibition was inactive: 2.78%.
With `Oc1ccccc1CNc1ccccn1`, the inhibition is inactive: -10.4%.
For the molecule `CC(=O)N1C2C3N(C(C)=O)C1C1N(C(C)=O)C(C(N1C(C)=O)N3C(C)=O)N2C(C)=O`, the inhibition was inactive: -4.28%.
With `O=[N+]([O-])c1cccc2n[nH]nc12`, the inhibition was inactive: -2.68%.
Next, `O=[N+]([O-])c1cc([N+](=O)[O-])c(CCNc2ccccc2)c([N+](=O)[O-])c1`: inactive: -5.17%; `CCc1nc2c(n1)c1c(non1O)c1c2no[n+]1[O-]`: inactive: 30.1%.
For `Cc1ccc(NP(=O)(Oc2ccccc2)Oc2ccccc2)nc1`, the inhibition was inactive: 1.56%.
Take `COc1ccc(C2=NCC(CBr)S2)cc1` (stereo not given): the inhibition is inactive: 7.16%.
On to `CN(C)C(=O)OCCc1n(C)cc[n+]1C`, for which the inhibition was inactive: 3.63%.
Next, `CC(C)=N/N=C(\N)N[N+](=O)[O-]`: inactive: -2.76%.
With `CC1CCN(C(=O)Oc2c(Cl)cc(Cl)c3cccnc23)CC1` the figure was inactive: -7.87%.
`C[N+]1=C2C=CC=CC=C2SC12C([N+](=O)[O-])=CC([N+](=O)[O-])=C[C-]2[N+](=O)[O-]` (stereo not given): the inhibition was inactive: -11.6%.
Next, `Nc1ccc([As](=O)(O)c2ccc(N)cc2)cc1`: inactive: -1.43%.
As to `CCN(/C(=N/P(=O)(N1CCOCC1)N1CCOCC1)N1CCOCC1)c1ccc(OC)cc1`, the inhibition was inactive: 1.45%.
Turning to `O=C(Nc1cc([As](=O)(O)O)ccc1O)c1ccccc1`, the inhibition was inactive: -1.67%.
Consider `O=[N+]([O-])c1cccc(NC2=NCC(CBr)S2)c1` (stereo not given), for which the inhibition is inactive: 1.23%.
With `CC(C)(C)C(=O)NC(Sc1ccncn1)C(Cl)(Cl)Cl` (stereo not given) the figure was inactive: -7.54%; with `O=[N+]([O-])c1ncn(CCn2ncnc2[N+](=O)[O-])n1`, inactive: -0.653%.
Take `C[C@H]1OP(=O)(Oc2ccccc2)[C@H](O)[C@H](O)[C@H]1N=[N+]=[N-]` (stereo not given in full): the inhibition is inactive: -4.65%.
With `O=P(Nc1nc2ccccc2s1)(c1ccccc1)c1ccccc1` the figure was inactive: 2.77%.
`CN(C)C1(CNC(=O)c2ccc(Cl)c(S(N)(=O)=O)c2)CCCCC1`: the inhibition was inactive: -30%.
For the molecule `O=P(Nc1ccccn1)(c1ccc(Br)cc1)c1ccc(Br)cc1`, the inhibition is inactive: 5.69%.
For `Nc1ccc([As](=O)(O)c2ccc([N+](=O)[O-])cc2)cc1`, the inhibition is inactive: -0.365%.
In the case of `C(Cc1nn[nH]n1)Cc1nn[nH]n1`, the inhibition was inactive: 9.47%.
For `O=C(OC1CN2CCC1CC2)c1cccc(Cl)c1` (stereo not given), the inhibition is inactive: 10.1%.
Next, `O=[N+]([O-])c1ncn(CCn2cnc([N+](=O)[O-])n2)n1`: inactive: 6.39%; `O=[As](O)(c1ccccc1)c1ccc(O)cc1`: inactive: -1.42%; `c1nnnn1CCn1cnnn1`: inactive: -6.66%.
In the case of `O=P(Nc1nccs1)(c1ccccc1)c1ccccc1`, the inhibition is inactive: -8.11%.
`CC(C)C(=O)NC(Sc1ccccc1)C(Cl)(Cl)Cl` (stereo not given): the inhibition was inactive: -3.95%.
Regarding `CC(C)(C)C(=O)NC(Sc1ccccc1)C(Cl)(Cl)Cl` (stereo not given), the inhibition was inactive: -7.17%.
`CCOc1ccc(C2=NCC(CBr)S2)cc1` (stereo not given): the inhibition was inactive: 9.02%.
As for `O=P1(Nc2nc3ccc(Cl)cc3s2)COc2ccccc2O1` (stereo not given), the inhibition is inactive: 2.83%.
Consider `CC(=O)Nc1ccc(Oc2c([N+](=O)[O-])cc([N+](=O)[O-])cc2[N+](=O)[O-])cc1`, for which the inhibition is inactive: 5.18%.
For the molecule `CC(=O)Nc1ccc([As](=O)(O)O)c(O)c1`, the inhibition is inactive: -15.7%.
Next, `CC(=O)c1ccc(N2CC2c2ccncc2)cc1` (stereo not given): inactive: 12.3%; `C[C@@H]1C=CCP(=O)(Oc2ccccc2)O1` (stereo not given in full): inactive: 3.07%; `C[C@H]1OP(=O)(Oc2ccccc2)C[C@@H]2O[C@@H]21` (stereo not given in full): inactive: -4.28%.
Take `Cc1ccccc1CN(C)C(=O)COC(=O)C(O)(c1ccccc1)c1ccccc1`: the inhibition is inactive: -6.26%.
Next, `O=C(NC1CCS(=O)(=O)C1)NP(=S)(Oc1ccccc1)Oc1ccccc1` (stereo not given): inactive: 3.06%.
Next, `CCNC(=S)/N=C(\N)N[N+](=O)[O-]`: inactive: 18.1%; `CCOC(=O)NC(Sc1ccccc1)C(Cl)(Cl)Cl` (stereo not given): inactive: 0.507%; `Cc1ccc(NP(=O)(Oc2cccc(C)c2)Oc2cccc(C)c2)nc1`: inactive: -21.1%.
Next, `c1ccc(-c2nn[nH]n2)c(-c2nn[nH]n2)c1`: inactive: -7.26%.
Turning to `CN(C)C(=O)Oc1noc2ccccc12`, the inhibition was inactive: -12.8%.
With `Cc1ccccc1OP(=O)(Nc1ccccn1)Oc1ccccc1C` the figure was inactive: 9.36%.
